A selection: hits, their analogues and other compounds. The true share with any hit is near 16%.
miR-21 reporter – miR-21 reporter, rising signal; Potency, µM (titrated, usually from 38.3 µM), without a hit: at the highest dose reporter change, positive = more light; AID 2288; 340,000 tested, under 10 active; HeLa miR-21 FLuc reporter, luciferase, 48 h; active = well fitted rising curve with a large enough effect; inconclusive = small, poorly fitted or top-dose-only effect; inactive = no such curve, though single readings can be large or run the other way;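 note: % of control where 0% means no effect; miR-21 action dims this reporter so a rising signal means less miR-21 action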
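HeLa miR-21-FLuc reporter line, endogenous miR-21; 2000 cells/well in DMEM/10% FBS; compound titration up to ~40uM final, 48 h, 37 degree Celsius; luciferase detection reagent, 15 min lysis, CCD luminescence.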
DT40 TDP1 no CPT – qHTS for Inhibitors of human tyrosyl-DNA phosphodiesterase 1 (TDP1): qHTS in cells in absence of CPT; Potency, µM (doses to about 46.2 µM), without a hit: top-dose activity change, negative = growth inhibition, hits mostly inhibitors; 420,000 tested, 15% active; DT40 Tdp1-/- hTDP1 cells, no CPT, ATP luminescence, 48 h; also: potency is read from the fitted curve at half-maximal effect; % is scaled to controls: 0 for no effect and ±100 for the full control effect; nearly all actives have a fitted effect of over 55% in size
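Seeded 400 DT40-hTDP1 cells/well (vehicle DMSO, no 20 nM CPT); pinned compounds; ≥48 hr at 37 °C; CellTiter-Glo luminescence as viability measure.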
TDP1 block – inhibitors of human tyrosyl-DNA phosphodiesterase TDP1. recombinant TDP1, AlphaScreen DNA substrate cleavage. Potency, µM (titrated, usually from 130 µM), inactives show top-dose activity change, negative = inhibition, most hits filed as inhibitors. 350,000 tested, 0.28% active; also: potency is read from the fitted curve at half-maximal effect; % is scaled to controls: 0 for no effect and ±100 for the full control effect; nearly all actives have a fitted effect of over 40% in size
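Tdp1 1 nM final; 15 min RT w/ cpd; substrate 15 nM, 5 min; beads 10 ug/ml, 10 min; AlphaScreen read. Neg ctrl: no enzyme.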
TDP1 cell CPT – growth inhibition of DT40 Tdp1-/-;hTDP1 cells with camptothecin (screen for TDP1 inhibitors); chicken DT40 Tdp1-/-;hTDP1 cells + 20 nM CPT, ATP luminescence, 48 h; Potency, µM (titrated, usually from 46.2 µM), without a hit: at the top dose activity change, negative = growth inhibition, usual class: inhibitors; 420,000 tested, 12% active; AID 686979; also: potency is read from the fitted curve at half-maximal effect; % is scaled to controls: 0 for no effect and ±100 for the full control effect; nearly all actives have a fitted effect of over 55% in size
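Chicken DT40 Tdp1-/- cells stably complemented with human TDP1 were seeded at 400 cells/well in medium containing 20 nM camptothecin, exposed to pin-transferred compounds, and grown at 37 °C for at least 48 hr. Viability was read as ATP luminescence.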
uPA surface inh – cell surface uPA generation inhibition | AID 540303 | Potency, µM (top dose mostly 38.3 µM), for the others: at the top dose activity change, negative = inhibition, most hits filed as inhibitors | 330,000 tested, 0.31% active | cell surface uPA generation assay, qHTS; active = well fitted inhibition curve with a large enough effect; inconclusive = small, poorly fitted or top-dose-only effect; inactive = no such curve, though single readings can be large or run the other way; tested in mouse RAW 264.7 cells; also: potency is read from the fitted curve at half-maximal effect; % is scaled to controls: 0 for no effect and ±100 for the full control effect; nearly all actives have a fitted effect of over 55% in size
Numbers without * were called inactive; u = inconclusive; x = no result given. Unless noted, calls follow the shape of the dose curve; as a rule, active = well fitted curve in the direction sought with a large enough effect; inconclusive = small, poorly fitted or top-dose-only effect, or another doubt; inactive = no such curve, though single readings can be large; an effect the other way counts as inactive or inconclusive.

Assay codes – A = miR-21 reporter; B = DT40 TDP1 no CPT; C = TDP1 block; D = TDP1 cell CPT; E = uPA surface inh
CCc1ccc(C(=O)c2cn(CC(=O)Nc3ccc4c(c3)OCCO4)c3ccc(F)cc3c2=O)cc1
  A: 1%; B: -18%; C: -1%; D: -20%; E: x

CCOc1ccc(NC(=O)Cn2cc(C(=O)c3ccc(OCC)cc3)c(=O)c3cc4c(cc32)OCCO4)cc1
  A: 5%; B: 5.8µM*; C: 6%; D: 13µM*; E: x

CCOc1ccc(C(=O)c2cn(CC(=O)Nc3ccc(Cl)cc3)c3cc4c(cc3c2=O)OCCO4)cc1
  A: 16%; B: 6.5µM*; C: 4%; D: u; E: x

CCOc1ccc(C(=O)c2cn(CC(=O)Nc3ccc(F)c(F)c3)c3cc4c(cc3c2=O)OCCO4)cc1
  A: 21%; B: 26µM*; C: 1%; D: u; E: x

O=C(Cn1cc(C(=O)c2ccccc2)c(=O)c2cc3c(cc21)OCCO3)Nc1ccc(F)c(F)c1
  A: 30%; B: u; C: 4%; D: 18µM*; E: x

CC1CCCCC1NC(=O)CN1CCC(NC(=O)c2ccc([N+](=O)[O-])cc2)CC1 (stereo not given)
  A: 0%; B: u; C: 5%; D: -4%; E: -3%

COc1ccccc1/C=C/C=N/NC(=O)c1ccc(=O)n(C)c1
  A: -6%; B: -12%; C: 5%; D: -4%; E: -3%

Cc1oc2ccc(OCc3ccc(F)cc3)cc2c1C(=O)O
  A: 0%; B: 11%; C: 8%; D: -4%; E: -1%

Cc1cc(=O)c2cc(Br)ccc2[nH]1
  A: 16%; B: 6.5µM*; C: 1%; D: 6.5µM*; E: -8%

COc1ccc(Oc2ccccc2C=O)cc1
  A: 15%; B: 5.8µM*; C: 2%; D: 12µM*; E: -4%

COc1ccc(Oc2ccccc2/C=C/C(=O)O)cc1
  A: -5%; B: -12%; C: 1%; D: 5%; E: -4%

Cc1cc(C)cc(Oc2ccccc2C=O)c1
  A: 5%; B: 4.6µM*; C: 0%; D: 5.8µM*; E: -16%

CC(=O)c1sc(NC(=O)C2CC(=O)N(Cc3ccco3)C2)nc1-c1ccccc1 (stereo not given)
  A: x; B: -23%; C: 0%; D: -11%; E: -8%

O=C(CCl)Nc1nc(-c2ccco2)c(-c2ccco2)s1
  A: -1%; B: u; C: 3%; D: u; E: -4%

COc1ccc(-c2nc(NC(=O)C3CC(=O)N(Cc4ccco4)C3)sc2C)cc1 (stereo not given)
  A: x; B: 12µM*; C: 8%; D: 16µM*; E: u

Remaining list, next part
Assay codes – A = miR-21 reporter; B = DT40 TDP1 no CPT; C = TDP1 block; D = TDP1 cell CPT; E = uPA surface inh
Cc1ccc(C(=O)Nc2nc(-c3ccco3)c(-c3ccco3)s2)o1
  A: x; B: 21µM*; C: 0%; D: 8.2µM*; E: -4%

COc1ccc(-c2nc(NC(=O)c3ccco3)sc2C)cc1
  A: x; B: 23µM*; C: x; D: 21µM*; E: x

COc1ccc(-c2csc(NC(=O)C3CC(=O)N(Cc4ccco4)C3)n2)cc1 (stereo not given)
  A: 2%; B: 21µM*; C: 0%; D: u; E: -1%

Cc1ccc2nc3c(cc2c1)c(NC(=O)c1cccnc1)nn3C
  A: -6%; B: u; C: 2%; D: u; E: -6%

COc1ccc(-c2nc(NC(=O)c3ccc(OCC(=O)N4CCOCC4)c(OC)c3)sc2C)cc1
  A: -9%; B: 18µM*; C: 9%; D: 23µM*; E: -6%

COc1ccc(-c2nc(NC(=O)C3CCN(c4nc5ccccc5o4)CC3)sc2C)cc1
  A: 3%; B: u; C: 5%; D: 16µM*; E: -4%

O=C(c1ccc(Oc2ccc(C(F)(F)F)cn2)cc1)N1CCN(c2ccccc2)CC1
  A: 17%; B: 29µM*; C: 2%; D: -9%; E: x

COc1ccc(N2CCN(C(=O)c3ccc(Oc4ccc(C(F)(F)F)cn4)cc3)CC2)cc1
  A: 1%; B: 23µM*; C: 6%; D: u; E: x

Cc1ccc(CONC(=O)c2ccc(OC(F)F)cc2)cc1
  A: -34%; B: 3%; C: 5%; D: -18%; E: -6%

FC(F)Oc1ccc(-n2cc(-c3ccccc3)[n+]3c2CCCCC3)cc1
  A: 20%; B: 5.8µM*; C: 0%; D: 5.2µM*; E: -9%

Cc1ccc(-c2cn(-c3ccc(OC(F)F)cc3)c3[n+]2CCCCC3)cc1
  A: u; B: 1µM*; C: 7%; D: 0.65µM*; E: -8%

COc1ccc(C(C)NC(=O)c2ccccc2Cl)cc1OC (stereo not given)
  A: -2%; B: -23%; C: -1%; D: -13%; E: -1%

Cc1ccc(-n2cc(-c3ccccc3)c3c(N4CCC(C)CC4)ncnc32)cc1Cl
  A: -2%; B: -12%; C: 13%; D: 1%; E: x
